# Where two headings read alike, the source gives them in different places.
# Settings: rabbit
# [1] = 2.1 μg/milliliter intravaginal daily for 10 days
# [2] = 4200 μg/milliliter intravaginal daily for 10 days
substance,measurement,setting,value
zinc ascorbo-camphorate [Third preparation],edema (histopathology),[1],no edema was observed
same,vaginal epithelium (histopathology),[1],remained entirely intact
same,edema (histopathology),[2],no edema was observed
same,vaginal epithelium (histopathology),[2],remained entirely intact
same,vaginal irritation,1 ml of 2.1 μg/milliliter intravaginal daily for 10 consecutive days,“minimal” vaginal irritation
same,vaginal irritation,1 ml of 4200 μg/milliliter intravaginal daily for 10 consecutive days,“minimal” vaginal irritation

# Reference: patent publication US8198321B2, “Anti-microorganism terpenic composition” (priority 2006, dated 2012)
